{"source": "patent US20120231013A1", "about": "(Amgen, published 2012)", "binders": {"B1": {"name": "LRP-1 peptide LA23-24 (peptide)", "chain": "not shown", "notes": "Tags implied (Ni-NTA, anti-HA detection), not described"}, "B2": {"name": "LRP-1 peptide LA23 (peptide)", "chain": "CLPSQFKCTNTNRCIPGIFRCNGQDNCGDGEDERDCPEVT"}, "B3": {"name": "LRP-1 peptide LA24 (peptide)", "chain": "not shown", "notes": "as for B1"}, "B4": {"name": "LRP-1 peptide LA3-4 (peptide)", "chain": "CQPGEFACANSRCIQERWKCDGDNDCLDNSDEAPALCHQHTCPSDRFKCENNRCIPNRWLCDGDNDCGNSEDESNAT", "notes": "as for B1"}, "B5": {"name": "LRP-1 peptide LA4-5 (peptide)", "chain": "CPSDRFKCENNRCIPNRWLCDGDNDCGNSEDESNATCSARTCPPNQFSCASGRCIPISWTCDLDDDCGDRSDESASCAYPT"}, "B6": {"name": "LRP-1 peptide LA3 (peptide)", "chain": "not shown"}, "B7": {"name": "LRP-1 peptide LA3-5 (peptide)", "chain": "CQPGEFACANSRCIQERWKCDGDNDCLDNSDEAPALCHQHTCPSDRFKCENNRCIPNRWLCDGDNDCGNSEDESNATCSARTCPPNQFSCASGRCIPISWTCDLDDDCGDRSDESASCAYPT", "notes": "as for B1"}, "B8": {"name": "LRP-1 peptide LA17 (peptide)", "chain": "CGPSSFSCPGTHVCVPERWLCDGDKDCADGADESIAAGCLYNST", "notes": "as for B1"}, "B9": {"name": "LRP-1 peptide LA24-26 (peptide)", "chain": "not shown", "notes": "The end 3574 is inferred from the end of LA26"}, "B10": {"name": "LRP-1 peptide LA26-28 (peptide)", "chain": "CEPYQFRCKNNRCVPGRWQCDYDNDCGDNSDEESCTPRPCSESEFSCANGRCIAGRWKCDGDHDCADGSDEKDCTPRCDMDQFQCKSGHCIPLRWRCDADADCMDGSDEEACGTGVRT"}}, "data": [{"biological_target": "T1, recombinant human TIMP-3 (human, UniProt P35625 24-211)", "T1 sequence (looked up)": "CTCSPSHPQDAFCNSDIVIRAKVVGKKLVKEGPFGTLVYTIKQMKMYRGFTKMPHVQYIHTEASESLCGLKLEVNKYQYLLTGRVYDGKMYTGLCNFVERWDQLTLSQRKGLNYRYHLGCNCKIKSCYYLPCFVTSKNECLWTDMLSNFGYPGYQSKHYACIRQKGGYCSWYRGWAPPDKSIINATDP", "assay": "cell-based or functional assay", "units": {"% of the inhibitory activity of TIMP-3 + peptide compared to TIMP-3 alone, 16 nM": "%", "% of the inhibitory activity of TIMP-3 + peptide compared to TIMP-3 alone, 80 nM": "%", "% of the inhibitory activity of TIMP-3 + peptide compared to TIMP-3 alone, 400 nM": "%", "% of the inhibitory activity of TIMP-3 + peptide compared to TIMP-3 alone, 2000 nM": "%"}, "values": [{"binder": "B1", "% of the inhibitory activity of TIMP-3 + peptide compared to TIMP-3 alone, 16 nM": 106, "% of the inhibitory activity of TIMP-3 + peptide compared to TIMP-3 alone, 80 nM": 103}, {"binder": "B2", "% of the inhibitory activity of TIMP-3 + peptide compared to TIMP-3 alone, 400 nM": 106}, {"binder": "B3", "% of the inhibitory activity of TIMP-3 + peptide compared to TIMP-3 alone, 400 nM": 103}, {"binder": "B4", "% of the inhibitory activity of TIMP-3 + peptide compared to TIMP-3 alone, 80 nM": 102}, {"binder": "B5", "% of the inhibitory activity of TIMP-3 + peptide compared to TIMP-3 alone, 16 nM": 102, "% of the inhibitory activity of TIMP-3 + peptide compared to TIMP-3 alone, 400 nM": 102}, {"binder": "B6", "% of the inhibitory activity of TIMP-3 + peptide compared to TIMP-3 alone, 16 nM": 103}, {"binder": "B7", "% of the inhibitory activity of TIMP-3 + peptide compared to TIMP-3 alone, 400 nM": 103}, {"binder": "B8", "% of the inhibitory activity of TIMP-3 + peptide compared to TIMP-3 alone, 16 nM": 103}, {"binder": "B9", "% of the inhibitory activity of TIMP-3 + peptide compared to TIMP-3 alone, 2000 nM": 103}, {"binder": "B10", "% of the inhibitory activity of TIMP-3 + peptide compared to TIMP-3 alone, 2000 nM": 103}]}]}
